Laboratory results taken from PubChem BioAssay AID2052 (NMMLSC, 2009).
Only a part is listed here, and it is no random draw. The source made the active and inactive calls.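 How the source made its calls: active means response, share of CD8 T cells binding vesicles, and their 90th percentile fluorescence all below set limits (cut at about 80% in these data, passing the limit was not always enough); inactive means the rest, inconclusive results apart.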

Experiment: murine CD8 T cell vesicle adhesion modulation – mouse 2C CD8+ T cells, flow cytometry, primary screen (AID 2052);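 further: values below 100% mean blocked vesicle binding to the CD8+ T cells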
Details: 2C CD8+ T cell-vesicle binding, at 7 µM, active compounds read low
Outline: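 Material: murine 2C transgenic CD8+ T lymphocytes / Also added: QL9-peptide-loaded Drosophila micro-vesicles bearing Ld, ICAM-1 and B7-1 / Schedule: binding step 1.5 h, 37 °C, antibody labelling 20 min, ice / Signal: flow cytometry, PE anti-B7-1 (FL2) versus Alexa647 anti-CD8 (FL8), PFA-fixed / Evaluation: percent CD8+ FL2 mean versus row control / Benchmarks: naked versus QL9-loaded vesicles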

Structure (SMILES) | response (vesicle binding)
COc1ccccc1OP(C)(=O)Nc1cc(Cl)ccc1C (stereo not given) | inactive: 192%
CCN(CC)C(=S)SC(NC=O)C(Cl)(Cl)Cl (stereo not given) | inactive: 280%
Cc1ccc(NP(C)(=O)Oc2ccccc2)c(C)c1 (stereo not given) | inactive: 176%
CC(C)c1ccc(OP(=O)(Nc2ccccn2)Oc2ccccc2F)cc1 (stereo not given) | inactive: 782%
COc1ccccc1OP(C)(=O)Nc1ccc(C)cc1 (stereo not given) | inactive: 166%
ClCCSc1nnc(-c2cccnc2)o1 | inactive: 308%
CCOC(=O)c1ccc(NP(C)(=O)Oc2ccccc2)cc1 (stereo not given) | inactive: 183%
O=[N+]([O-])c1ccc2c(c1)C=Nc1ccccc1O2 | inactive: 84.4%
Cc1ccc2nc3c(c(C)c2c1)CC(C(Cl)Cl)S3 (stereo not given) | inactive: 193%
Cc1cccc(C)c1OP(C)(N)=O (stereo not given) | inactive: 367%
Cc1ccc(OP(=O)(Nc2ccc([N+](=O)[O-])cn2)Oc2ccc(C)cc2)cc1 | inactive: 102%
CC(C)(C)c1ccc(OP(C)(=O)Nc2ccc(SC(F)(F)F)cc2)cc1 (stereo not given) | inactive: 171%
COc1cc(C(=O)NCC2(N3CCOCC3)CCCCC2)ccc1OCC(C)C | inactive: 364%
C[As](=O)(O)c1cccc(C(=O)O)c1 | inactive: 207%
O=[As](O)(c1ccc(O)cc1)c1ccccc1O | inactive: 449%
O=[N+]([O-])c1cc([N+](=O)[O-])c(Nc2cccnc2)c([N+](=O)[O-])c1 | inactive: 502%
O=[N+]([O-])c1ccc(Nc2ccc(Oc3ccc([N+](=O)[O-])cc3[N+](=O)[O-])cc2)c([N+](=O)[O-])c1 | inactive: 121%
CP(=O)(Nc1ccccc1Br)Oc1ccccc1 (stereo not given) | inactive: 242%
COc1ccccc1OP(C)(=O)Nc1ccccc1 (stereo not given) | inactive: 954%
Cc1cc(SC(NC=O)C(Cl)(Cl)Cl)ncn1 (stereo not given) | inactive: 384%

Structure (SMILES) | response (vesicle binding)
O=P(Nc1ccccn1)(c1cccc2ccccc12)c1cccc2ccccc12 | inactive: 257%
CCOC(=O)Nc1cccc([As](=O)(O)O)c1 | inactive: 346%
CP(=S)(Nn1cnnc1)Oc1ccccc1 (stereo not given) | inactive: 278%
Cc1cc(SC(NC(=O)c2ccccc2)C(Cl)(Cl)Cl)nc(C(C)C)n1 (stereo not given) | inactive: 366%
CCOC(=O)Nc1ccc([As](=O)(O)O)c(O)c1 | inactive: 744%
CCC(C)N(CC(C)C)C(=S)SC(NC(C)=O)C(Cl)(Cl)Cl (stereo not given) | inactive: 164%
O=[N+]([O-])c1cc([N+](=O)[O-])c(O)c([N+](=O)[O-])c1.c1ccc(Oc2ccncc2)cc1 | inactive: 125%
CCOC(=O)c1ccc(NP(C)(=O)Oc2ccc(OC)cc2)cc1 (stereo not given) | inactive: 170%
CCOC(=O)c1ccc(NC(=O)C(C)(CCl)SC)cc1 (stereo not given) | inactive: 455%
O=C(OC1CN2CCC1CC2)c1cccc([N+](=O)[O-])c1 (stereo not given) | inactive: 20.5%
CCOP(C)(=S)SCC(=O)NC(C)C(=O)O (stereo not given) | inactive: 222%
O=C(Nc1ccncc1[N+](=O)[O-])c1ccc([N+](=O)[O-])cc1[N+](=O)[O-] | inactive: 180%
Cc1cc(C)cc(OP(C)(=O)Nc2ccc(SC(F)(F)F)cc2)c1 (stereo not given) | inactive: 294%
CP(=O)(NC(=O)Nc1ccccc1)Oc1ccccc1 (stereo not given) | inactive: 663%
O=C(COc1ccccc1)OC1CN2CCC1CC2 (stereo not given) | inactive: 247%
CCc1ccc(OP(C)(=O)N2CCN(c3ccc([N+](=O)[O-])cc3)CC2)cc1 (stereo not given) | inactive: 444%
CP(=O)(Oc1ccccc1)OC(c1ccccc1)C(F)(F)F (stereo not given) | inactive: 262%
COP1(=S)c2c(C)nn(CCC#N)c2N=C(c2ccc(F)cc2)N1C (stereo not given) | inactive: 520%
CP(=O)(Nc1ccc(SC(F)(F)F)cc1)Oc1ccc(Cl)cc1 (stereo not given) | inactive: 332%
Cc1cccc(C)c1OP(C)(=O)Nc1ccc(SC(F)(F)F)cc1 (stereo not given) | inactive: 206%
